## Measured affinities in a library of Ab-14 light chain variants

Antigen: PDVDLGDISGINAS, a 14-residue peptide of the SARS-CoV-2 spike HR2 region.

Parent scFv Ab-14: VH joined to VL by the linker GGGGSGGGGSGGGGS. Changes lie in the light chain CDRs alone.
VH: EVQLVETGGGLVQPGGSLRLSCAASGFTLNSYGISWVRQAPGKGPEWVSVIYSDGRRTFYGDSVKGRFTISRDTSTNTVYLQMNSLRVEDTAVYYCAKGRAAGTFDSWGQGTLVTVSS
VL: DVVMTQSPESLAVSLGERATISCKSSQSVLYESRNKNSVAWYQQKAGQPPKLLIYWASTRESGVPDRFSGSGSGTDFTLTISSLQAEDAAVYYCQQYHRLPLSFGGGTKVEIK

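AAYL50 was designed without a model: most single CDR substitutions and a random sample of double and triple ones. In AlphaSeq, yeast of one mating type display the scFv and yeast of the other type display the target. The frequency of each diploid, read from paired DNA barcodes, reflects how well the two displayed proteins bind. The ratio of observed to expected reads was calibrated, replicate by replicate, on BCL2-family standards whose Kd was known from biolayer interferometry. The assay was run in three technical replicates.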

Variants are written as CDR1, CDR2 and CDR3 of the light chain (limits as in the source). Parent: KSSQSVLYESRNKNSVA, WASTRES, QQYHRLPLS. Every variant below is changed at Q27 of the VL (sequential numbering). Kd is apparent (estimated from mating counts) and averaged on the log scale over replicates with a signal. Smaller is tighter. "nd" means that the variant was in the library but no mating with the target was seen in any replicate; the authors take this as a sign of poor binding, and no number exists. Parent in this assay: reference entry 4.4 nM, copy in this library 48 nM. As a blank, each scFv also met three strains without target: over library AAYL50, 18% of these pairings were detected, typically at 15 µM and seldom below 970 nM.

KSSHSVLYESRNKNSVA | WASTREQ | QQYHRLPWS: 4.6 nM (3 of 3 replicates).
KSSESVYYESRNKNSVA | WASTRES | QQYHSLPLS: 37 nM (3 of 3 replicates).
KSSVSVLYESRNKNSVN | WASTRES | QQYLRLPLS: 58 µM (2 of 3 replicates).
KSSPSVLYESRIKNSVA | HASTRES | QQYHRLPLS: 1.3 nM (3 of 3 replicates).
KSSTRLLYESRNKNSVA | WASTRES | QQYHRLPLS: 8.6 nM (3 of 3 replicates).
KSSIKVLYESRNKNAVA | WASTRES | QQYHRLPLS: 800 nM (3 of 3 replicates).
KSSCSVHYESINKNSVA | WASTRES | QQYHRLPLS: 77 nM (3 of 3 replicates).
KSSLSVLYESRNKNSVA | WASTRES | QQYHRKHLS: 2.2 µM (3 of 3 replicates).
KSSMSVLYESRNKNSVA | WARTRWS | QQYHRLPLS: 200 nM (3 of 3 replicates).
KSSESVLYESRNKNSVA | WASTRES | QQYHRLPLN: 27 nM (3 of 3 replicates).
KSSASVLYESRNKNSVA | QASTRES | QCYHRLPLS: 1.7 nM (3 of 3 replicates).
KSSTSVLYESRNKNSVA | WVSTRES | QQYHRLPLS: 7.4 µM (2 of 3 replicates).
FSSVSVLYESRNKNSVA | WASTRES | QQYKRLPLS: nd (0 of 3 replicates).
KSSDSVLYESRNKNSVA | WASTRNS | HQYHRLPLS: nd (0 of 3 replicates).
KSSESVLYESRNKNSVL | WASTRES | QQYRRLPLS: nd (0 of 3 replicates).
KSSHSVLYESRNKNSCA | WASTRES | QQYHRLPLS: 44 µM (1 of 3 replicates).
KSSGSVLYESRLKNSVA | WASTRES | QQYHRLPHS: 98 µM (3 of 3 replicates).
KSSPSVLYESLNKNSVA | WASTRES | QQYHRLPLS: 4.4 nM (3 of 3 replicates).
KSSTSVLYESRNKNSVV | WAITRES | QQYHRLPLS: nd (0 of 3 replicates).
KSSWSVLYEARNKNSVA | WASTREN | QQYHRLPLS: 30 nM (3 of 3 replicates).
KSSESVLYESLPKNSVA | WASTRES | QQYHRLPLS: 6.5 nM (3 of 3 replicates).
KHSESVLYESRNKNSVA | WASTRES | QQYHQLPLS: nd (0 of 3 replicates).
KSSMSVLYESRNKNSMA | WASTREK | QQYHRLPLS: 9.7 nM (3 of 3 replicates).
KSSHSVLYESSNKNSVA | WASTRES | QVYHRLPLS: 320 nM (3 of 3 replicates).
KSSSSVLYESRNKNSVA | NASTRES | QQYERLPLS: nd (0 of 3 replicates).
KSSYSVLYESRNMLSVA | WASTRES | QQYHRLPLS: 280 nM (3 of 3 replicates).
KSSYSVLYESSNKNSVA | WASTRES | CQYHRLPLS: 2.8 µM (3 of 3 replicates).
KSSFSPMYESRNKNSVA | WASTRES | QQYHRLPLS: 84 µM (2 of 3 replicates).
KSSISVLYESRNKNSVA | WASTRES | QQYHRLALA: 11 µM (3 of 3 replicates).
KSSESVLYESQNKNSVA | WASTRIS | QQYHRLPLS: 13 nM (3 of 3 replicates).
KSSFSVLYESRNKNSVA | WYSTMES | QQYHRLPLS: 1.9 µM (3 of 3 replicates).
KSSRSVLYESRNKNSVA | WASTRES | QQYHRVPLA: 13 nM (3 of 3 replicates).
KSSWSVLYESRNKNSAA | WESTRES | QQYHRLPLS: nd (0 of 3 replicates).
KSSNSVLYESFNKNSVA | KASTRES | QQYHRLPLS: 1.5 nM (3 of 3 replicates).
KSSVSVLYESRNKNSVA | WASTRES | QQYHRLPLS: 6.7 nM (3 of 3 replicates).
KSMRSVLYESRNKNSVA | WASTREH | QQYHRLPLS: 100 nM (3 of 3 replicates).
KSSWSVLYESRNKNSVN | WASTRES | QQYHRTPLS: nd (0 of 3 replicates).
KSSISVLYESRNKNSVA | WASTRES | HQMHRLPLS: 710 nM (3 of 3 replicates).
KSSVSVLYESRNKNSVA | WASTRES | QQYDRLPLS: 12 nM (3 of 3 replicates).
KSSMSVLYESRNTNSVA | WASTRES | QQYHRLYLS: 2.4 µM (1 of 3 replicates).
KRSCSVLDESRNKNSVA | WASTRES | QQYHRLPLS: 24 nM (3 of 3 replicates).
KSSESVLYESRNKNSVA | WAATRES | QQYIRLPLS: 81 nM (3 of 3 replicates).
KSSSSVLYESRNGNSVA | WASTRES | QQYGRLPLS: 9.8 nM (3 of 3 replicates).
KSSGSVLYELRNKNSVA | WASTRES | QQYHRLPLT: nd (0 of 3 replicates).
KSSHSVLYESRNKNSVA | WASTRES | QQYAMLPLS: 6.4 nM (3 of 3 replicates).

Top 7 of the variants detected in all replicates, tightest first:

{"CDR-L1": "KSSPSVLYESRIKNSVA", "CDR-L2": "HASTRES", "CDR-L3": "QQYHRLPLS", "apparent Kd": "1.3 nM", "seen in": "3/3"}
{"CDR-L1": "KSSNSVLYESFNKNSVA", "CDR-L2": "KASTRES", "CDR-L3": "QQYHRLPLS", "apparent Kd": "1.5 nM", "seen in": "3/3"}
{"CDR-L1": "KSSASVLYESRNKNSVA", "CDR-L2": "QASTRES", "CDR-L3": "QCYHRLPLS", "apparent Kd": "1.7 nM", "seen in": "3/3"}
{"CDR-L1": "KSSPSVLYESLNKNSVA", "CDR-L2": "WASTRES", "CDR-L3": "QQYHRLPLS", "apparent Kd": "4.4 nM", "seen in": "3/3"}
{"CDR-L1": "KSSHSVLYESRNKNSVA", "CDR-L2": "WASTREQ", "CDR-L3": "QQYHRLPWS", "apparent Kd": "4.6 nM", "seen in": "3/3"}
{"CDR-L1": "KSSHSVLYESRNKNSVA", "CDR-L2": "WASTRES", "CDR-L3": "QQYAMLPLS", "apparent Kd": "6.4 nM", "seen in": "3/3"}
{"CDR-L1": "KSSESVLYESLPKNSVA", "CDR-L2": "WASTRES", "CDR-L3": "QQYHRLPLS", "apparent Kd": "6.5 nM", "seen in": "3/3"}

From the AlphaSeq antibody data of Engelhart et al. 2022 (doi:10.1038/s41597-022-01779-4), copy in the FLAb collection.